The nature of data set [1]: glass transition temperature (Tg) of the drug. In kind it is physicochemical. The conditions noted are these: for Tg: Table B, unless noted Tg measured at less than 10% RH. How it is done:
In a first aspect, the invention comprises a solid composition comprising a plurality of particles. The particles comprise a low-solubility drug and a poloxamer. The drug is in intimate contact with the poloxamer in the particles. Collectively, the drug and poloxamer constitute at least 50 wt % of the particles. At least a substantial portion of the drug in the composition is amorphous. The Tg of the drug is at least 50° C. Unless otherwise noted, as used herein the Tg refers to the Tg measured at less than 10% RH.
Such Tg values may represent that of drug dispersed in the amorphous portions of the poloxamer or the Tg of drug-rich phases or domains. […] The Tg of the drug may be at least about 60° C., at least about 70° C., or even at least about 80° C. The Tg of a drug can be determined using standard analytical techniques well known in the art, including by a dynamic mechanical analyzer (DMA), a dilatometer, a dielectric analyzer, and by differential scanning calorimetry (DSC).

Take “quinoxaline-2-carboxylic acid [4(R)-carbamoyl-1(S)-3-fluorobenzyl)-2(S),7-dihydroxy-7-methyl-octyl]amide”: in data set [1], the Tg turned out to be 69 °C.

Regarding “N-(1,1-dimethylethyl) decahydro-2-[(2R,3R)-2-hydroxy-3-[(3-hydroxy-2-methylbenzoyl)amino]-4-(phenylthio)butyl]-3-isoquinolinecarboxamide (3s, 4aS, 8aS)-monomethanesulfonate [Drug 3]”, the Tg in data set [1] is 116 °C. The “Tg,drug” value in data set [1] (at 0% RH) was found to be 119 °C. Moreover, the “Log P” value in “Log P of the drug” is “about 4.1”.

(Values after patent US8974823B2, “Solid compositions of low-solubility drugs and poloxamers” (Bend Research, Inc., priority 2003, dated 2015).)
